Only a part is listed here, and it is no random draw. The source made the active and inactive calls.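 Rule for the calls: active = GFP/RFP ratio change of at least 30% with cell ATP level not reduced by more than half and red fluorescence within 50% of control; inactive = the rest, inconclusive results apart.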

The target in this assay is Matrix metalloproteinase-14 (Homo sapiens) (UniProt P50281). Nature of the assay: blockers of MT1-MMP proenzyme processing, primary screen, HT1080 RFP-PRO-GFP cells, GFP/RFP fluorescence (AID 651647). Conditions: overnight, at 20 µM, active compounds read high, percent of plate control window, DMSO zero. In a few lines:
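Material – HT1080 RFP-PRO-GFP cells · Control set – DMSO wells and RFP-L50D-GFP cells · Incubation – overnight cell settling, then overnight compound exposure, 37 °C, 5% CO2 · Compound dosing – single-point 20 µM compound, 1% DMSO · Read-out – GFP/RFP fluorescence ratio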
As for `Nc1cc(N)c2nonc2c1[N+](=O)[O-]`, the GFP/RFP ratio change was inactive: 2.21%.

Take `CC(C)CC(=O)NC(Sc1ccc(Cl)cc1)C(Cl)(Cl)Cl` (stereo unspecified): the GFP/RFP ratio change is inactive: -5.61%.

Take `O=[N+]([O-])C1C(O)C(O)C([N+](=O)[O-])C(O)C1O` (stereo unspecified): the GFP/RFP ratio change was inactive: 2.98%.

Take `O=P(Nc1nc2ccc(Cl)cc2s1)(c1ccccc1)c1ccccc1`: the GFP/RFP ratio change is inactive: 3.51%.

`CN(C)P(=O)(N(C)C)n1c(Nc2ccccc2)nnc1-c1ccccc1`: the GFP/RFP ratio change was inactive: -3.19%.

As for `CC(=O)Nc1ccc([As](=O)(O)O)cc1`, the GFP/RFP ratio change is inactive: 0.373%.

As for `O=C(O)c1ccccc1[As](=O)(O)O`, the GFP/RFP ratio change is inactive: -3.63%.

In the case of `CCCC1OP(N)(=O)OCC1CC` (stereo unspecified), the GFP/RFP ratio change is inactive: 3.51%.

Regarding `Cc1cc(SC(NC(=O)c2ccc(F)cc2)C(Cl)(Cl)Cl)ncn1` (stereo unspecified), the GFP/RFP ratio change is inactive: 1.11%.

In the case of `CCOP(=O)(Nc1ccccc1)OCC`, the GFP/RFP ratio change is inactive: -3.82%.

Turning to `CN(C(=O)Cc1ccc(Cl)c(Cl)c1)[C@H]1CCCC[C@@H]1N1CCCC1`, the GFP/RFP ratio change was inactive: 2.61%.

Take `Cc1ccc(NP(=O)(Oc2ccccc2F)Oc2ccccc2F)nc1`: the GFP/RFP ratio change was inactive: 3.79%.

`Nc1cccc2ccc([As](=O)(O)O)cc12`: the GFP/RFP ratio change was inactive: 26.4%.

Take `CCN(N=Nc1nonc1N)c1nonc1N`: the GFP/RFP ratio change is inactive: -0.673%.

Consider `O=P1(N(CCCl)CCCl)OCCCS1` (stereo unspecified), for which the GFP/RFP ratio change is inactive: 1.52%.

As to `O=C(Nc1cc([As](=O)(O)O)ccc1O)c1ccccc1`, the GFP/RFP ratio change is inactive: -0.0816%.

On to `O=[N+]([O-])c1ncn(CCn2ncnc2[N+](=O)[O-])n1`, for which the GFP/RFP ratio change is inactive: -1.26%.

`CC(C)(C)C(=O)NC(Sc1ccncn1)C(Cl)(Cl)Cl` (stereo unspecified): the GFP/RFP ratio change is inactive: -3.2%.

As for `O=C(O)CNc1ccc([As](=O)(O)O)cc1`, the GFP/RFP ratio change is inactive: -0.561%.

Take `COC(=O)C1(C)COP(=O)(Nc2ccccc2)OC1` (stereo unspecified): the GFP/RFP ratio change is inactive: -2.8%.

As to `O=[N+]([O-])c1cccc(NC2=NCC(CBr)S2)c1` (stereo unspecified), the GFP/RFP ratio change was inactive: 1.78%.

As for `COc1ccc(C2=NCC(CBr)S2)cc1` (stereo unspecified), the GFP/RFP ratio change is inactive: -5.91%.

With `Cc1ccc(NP(=O)(Oc2ccccc2)Oc2ccccc2)nc1`, the GFP/RFP ratio change was inactive: -0.494%.

As to `O=[N+]([O-])c1cc([N+](=O)[O-])c(CCNc2ccccc2)c([N+](=O)[O-])c1`, the GFP/RFP ratio change is inactive: 8.21%.

With `CCc1nc2c(n1)c1c(non1O)c1c2no[n+]1[O-]`, the GFP/RFP ratio change was inactive: -24.8%.

As to `CC(=O)N1C2C3N(C(C)=O)C1C1N(C(C)=O)C(C(N1C(C)=O)N3C(C)=O)N2C(C)=O`, the GFP/RFP ratio change was inactive: 5.18%.

`O=[N+]([O-])c1cccc2n[nH]nc12`: the GFP/RFP ratio change was inactive: 3.03%.

As to `CCN(/C(=N/P(=O)(N1CCOCC1)N1CCOCC1)N1CCOCC1)c1ccc(OC)cc1`, the GFP/RFP ratio change was inactive: -3.71%.

With `Nc1ccc([As](=O)(O)c2ccc(N)cc2)cc1`, the GFP/RFP ratio change is inactive: -2.53%.

As to `C[N+]1=C2C=CC=CC=C2SC12C([N+](=O)[O-])=CC([N+](=O)[O-])=C[C-]2[N+](=O)[O-]` (stereo unspecified), the GFP/RFP ratio change is inactive: 15%.

`CC1CCN(C(=O)Oc2c(Cl)cc(Cl)c3cccnc23)CC1`: the GFP/RFP ratio change is inactive: 1.82%.

Regarding `c1cc(-c2nn[nH]n2)ccc1-c1nn[nH]n1`, the GFP/RFP ratio change was inactive: 3.64%.

Turning to `CC(C)c1nc(Nc2ccccc2)n(P(=O)(N(C)C)N(C)C)n1`, the GFP/RFP ratio change is inactive: -0.594%.

For the compound `CC(C)=N/N=C(\N)N[N+](=O)[O-]`, the GFP/RFP ratio change is inactive: 1.16%.

`CN(C)C(=O)OCCc1n(C)cc[n+]1C`: the GFP/RFP ratio change was inactive: -5.69%.

As to `COP1(=S)c2c(C)nn(CCC#N)c2N=C(c2ccc(F)cc2)N1C` (stereo unspecified), the GFP/RFP ratio change is inactive: -2.63%.

Take `COC(=O)C1(C)COP(=O)(N2CCCC2)OC1` (stereo unspecified): the GFP/RFP ratio change was inactive: -0.11%.

As for `O=C(O)C(=O)c1ccc(N(CCCl)CCCl)cc1`, the GFP/RFP ratio change was inactive: 4.38%.

With `O=C(COc1ccccc1)OC1CN2CCC1CC2` (stereo unspecified), the GFP/RFP ratio change is inactive: -3.59%.

Consider `O=C(Nc1ccncc1[N+](=O)[O-])c1ccc([N+](=O)[O-])cc1[N+](=O)[O-]`, for which the GFP/RFP ratio change was inactive: -14.5%.

Take `O=C(OC1CN2CCC1CC2)c1cccc([N+](=O)[O-])c1` (stereo unspecified): the GFP/RFP ratio change was inactive: 0.425%.

`CSc1ccc(Nc2c([N+](=O)[O-])cc([N+](=O)[O-])cc2[N+](=O)[O-])cc1`: the GFP/RFP ratio change was inactive: 15.3%.

On to `CCOC(=O)c1ccc(NC(=O)C(C)(CCl)SC)cc1` (stereo unspecified), for which the GFP/RFP ratio change was inactive: 1.5%.

Turning to `CCC(C)N(CC(C)C)C(=S)SC(NC(C)=O)C(Cl)(Cl)Cl` (stereo unspecified), the GFP/RFP ratio change is inactive: 2.8%.

As to `O=C(O)C(O)c1ccc(N(CCCl)CCCl)cc1` (stereo unspecified), the GFP/RFP ratio change was inactive: -3.6%.

Consider `CCOC(=O)Nc1ccc([As](=O)(O)O)c(O)c1`, for which the GFP/RFP ratio change is inactive: 5.45%.

As for `CC1CCNP(=O)(N(CCCl)CCCl)O1` (stereo unspecified), the GFP/RFP ratio change was inactive: 0.923%.

Regarding `COP(=O)(OC)N1CC1c1ccccc1` (stereo unspecified), the GFP/RFP ratio change is inactive: -1.43%.

For `CCCCOc1ccc(C(=O)NCC2(N3CCCCC3)CCCCC2)cc1OC`, the GFP/RFP ratio change was inactive: -0.23%.

As to `Cc1cc(SC(NC(=O)c2ccccc2)C(Cl)(Cl)Cl)nc(C(C)C)n1` (stereo unspecified), the GFP/RFP ratio change is inactive: -5.77%.

As to `CCOC(=O)Nc1cccc([As](=O)(O)O)c1`, the GFP/RFP ratio change was inactive: 5.41%.

For the origin of these results see PubChem BioAssay AID651647 (Sanford-Burnham Center for Chemical Genomics, 2012).
